ALDH1A1 inh = ALDH1A1 (human) enzyme inhibition; P00352; Purified ALDH1A1, NADH fluorescence, propionaldehyde substrate; Potency, µM (top dose mostly 75.3 µM), for inactives: at the top dose activity, negative = inhibition, hits mostly inhibitors; actives 7.3% (n = 220,000); active = well fitted inhibition curve with a large enough effect, not every such curve was filed as active; inconclusive = small, poorly fitted or top-dose-only effect, or another doubt; inactive = no such curve, though single readings can be large or run the other way;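 also: potency is read from the fitted curve at half-maximal effect; plate controls were no enzyme wells and a reference inhibitor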
miR-21 reporter = raises the signal of a miR-21 reporter; HeLa miR-21 FLuc reporter, luciferase, 48 h; Potency, µM (top dose mostly 38.3 µM), for inactives: at the highest dose reporter change, positive = more light; AID 2288; 340,000 tested, under 10 active; active = well fitted rising curve with a large enough effect; inconclusive = small, poorly fitted or top-dose-only effect; inactive = no such curve, though single readings can be large or run the other way;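 note: % of control where 0% means no effect; miR-21 action dims this reporter so a rising signal means less miR-21 action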
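Luminescence from a firefly luciferase reporter carrying a miR-21 binding site downstream, stably expressed under a CMV promoter in HeLa cells that make miR-21 endogenously, reports miRNA modulation after 48 h compound exposure up to approximately 40uM final.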
JMJD2E inh = inhibitors of human JMJD2E histone demethylase. actives 1.6% (n = 230,000). Potency, µM (doses to about 57.1 µM), for inactives: top-dose activity change, negative = inhibition, actives largely listed as inhibitors. AID 2147. JMJD2E catalytic domain, FDH-coupled NADH fluorescence (FDH is formaldehyde dehydrogenase). B2RXH2; active = well fitted inhibition curve with a large enough effect, not every such curve was filed as active; inconclusive = small, poorly fitted or top-dose-only effect, or another doubt; inactive = no such curve, though single readings can be large or run the other way;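 also: potency is read from the fitted curve at half-maximal effect; 0% = wells with enzyme and -100% = buffer wells without enzyme; nearly all actives have a fitted effect of over 50% in size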
LMNA splice mod = changes lamin A minigene splicing in HeLa cells; actives 0.01% (n = 200,000); Potency, µM (top dose mostly 46.1 µM), for inactives: top-dose ratio change, negative = inhibition, most hits filed as inhibitors; HeLa LMNA splicing GFP/RFP minigene ratio, 48 h; active = well fitted inhibition curve with a large enough effect in the signal ratio, with a control signal flat, not every such curve was filed as active; inconclusive = small, poorly fitted or top-dose-only effect, or effect the other way, or a change in a side signal; the % refers to the signal ratio; also: potency is read from the fitted curve at half-maximal effect; % is scaled to controls: 0 for no effect and ±100 for the full control effect
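Read-out is the ratio of GFP to DsRed2 object intensity, acquired by 488 nm laser-scanning cytometry on HeLa lamin A-EGFP minigene reporter cells. Compound incubation 48 hrs at 37 °C in Opti-MEM with 2% FBS; DMSO 0.5% final.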
Sfp PPTase inh = qHTS Assay for Inhibitors of Bacillus subtilis Sfp phosphopantetheinyl transferase (PPTase); 4'-phosphopantetheinyl transferase ffp (Bacillus subtilis), Q9F4F7; Biochemical Sfp PPTase activity, qHTS; Potency, µM, for inactives: max response, negative = inhibition, most hits filed as inhibitors; hit rate 3.5% among 310,000; AID 1490, 2009; active = well fitted inhibition curve with a large enough effect; inconclusive = small, poorly fitted or top-dose-only effect, or another doubt; inactive = no such curve, though single readings can be large or run the other way;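 also: the enzyme is Sfp with the accession as filed and its product quenches rhodamine fluorescence; potency is read from the fitted curve at half-maximal effect; 0% = enzyme reaction without inhibitor and -100% = no enzyme wells; top concentration of the series not given in the record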
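Reaction rates are the 30-min fluorescence difference (ex 525, em 598 nm) in wells containing 15 nM Sfp, 5 uM rhodamine-CoA and 12.5 uM BHQ-2-YbbR at pH 7.6 with 10 mM MgCl2.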
G9a inh = G9a (human) methyltransferase inhibition; G9a H3K9 monomethylation, AlphaScreen, 2 h; actives 8.8% (n = 350,000); AID 504332; Potency, µM (doses to about 102 µM), without a hit: top-dose activity, negative = inhibition, hits mostly inhibitors; also: potency is read from the fitted curve at half-maximal effect; % is scaled to controls: 0 for no effect and ±100 for the full control effect; nearly all actives have a fitted effect of over 75% in size
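Quantitative HTS format: methyltransferase activity on a biotin-tagged H3K9 peptide is measured by AlphaScreen, using a rabbit anti-monomethyl-H3K9 antibody with streptavidin donor and anti-IgG acceptor beads. Final levels are 20 nM enzyme, 500 nM peptide, 20 uM SAM; 2 h RT.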
Active calls of the source: *; ? = inconclusive; nt = no result given; [ ] = another dose, or the depositor's remark. Only some compounds are listed: those with a hit (about 13% of all), similar ones and a draw of the others. Unless noted, calls follow the shape of the dose curve; as a rule, active = well fitted curve in the direction sought with a large enough effect; inconclusive = small, poorly fitted or top-dose-only effect, or another doubt; inactive = no such curve, though single readings can be large; an effect the other way counts as inactive or inconclusive.

Field names – A = ALDH1A1 inh; B = miR-21 reporter; C = JMJD2E inh; D = LMNA splice mod; E = Sfp PPTase inh; F = G9a inh
compound: Cc1ccc(CNC(=O)CNS(=O)(=O)c2ccc3c(c2)C(C)(C)C(=O)N3C)cc1
  A: nt; B: 1%; C: nt; D: nt; E: 6%; F: nt
compound: O=[N+]([O-])c1c(NCCCO)cc(Sc2nc3ccccc3s2)c2nonc12
  A: 16µM*; B: 8%; C: -2%; D: ?; E: -4%; F: ?
compound: CCC(=O)OCCNc1cc(Sc2nc3ccccc3[nH]2)c2nonc2c1[N+](=O)[O-]
  A: -20%; B: ?; C: -5%; D: ?; E: 18µM*; F: 8.9µM*
compound: CS(=O)(=O)c1ccc(Sc2nc3ccccc3s2)c([N+](=O)[O-])c1
  A: 6%; B: ?; C: 6%; D: ?; E: -5%; F: 0%[59 µM]
compound: CCC(=O)OCCNc1cc(Sc2nc3ccccc3s2)c2nonc2c1[N+](=O)[O-]
  A: 8.9µM*; B: ?; C: 1%; D: 1%; E: 4µM*; F: 2µM*
compound: CSc1ncc(C(=O)Nc2ccccc2C(=O)c2ccccc2)c(C)n1
  A: nt; B: -6%; C: nt; D: 4%[46 µM]; E: nt; F: -23%[59 µM]
compound: O=C(O)C(Cc1ccccc1)Cc1ccccc1
  A: 10%[13.5 µM]; B: nt; C: nt; D: nt; E: nt; F: nt
compound: COc1cccc(-c2ccc(NC(=O)C3CCCN(Cc4cnn(C)c4)C3)cc2)c1 (stereo not drawn)
  A: nt; B: -6%; C: nt; D: nt; E: 0%; F: 31%[59 µM]
compound: COCc1cc(CN2CCCC(C(=O)Nc3ccc(-c4ccco4)cc3)C2)ccc1OC (stereo not drawn)
  A: nt; B: -1%; C: nt; D: nt; E: 50µM*; F: 8.9µM*
compound: Cc1ncc(CN2CCCC(C(=O)Nc3ccc(-c4ccco4)cc3)C2)cn1 (stereo not drawn)
  A: nt; B: 0%; C: nt; D: nt; E: 32µM*; F: 10%[0.501 µM]
compound: COc1cc(NS(=O)(=O)c2ccc(NC(=O)C(C)Oc3ccc(Cl)cc3Cl)cc2)nc(OC)n1 (stereo not drawn)
  A: nt; B: -26%; C: nt; D: nt; E: nt; F: ?
compound: O=C(NCCNC(=O)c1ccccc1Br)c1cccnc1
  A: nt; B: 0%; C: nt; D: nt; E: 10%; F: nt
compound: COC(=O)C(C)Sc1n[nH]c(=S)s1 (stereo not drawn)
  A: 20µM*; B: -1%; C: ?; D: -5%; E: 50µM*; F: 6.3µM*
compound: Cc1cc(C)n2nc(C(=O)OCC(=O)c3cc(C)n(C)c3C)nc2n1
  A: -11%; B: -4%; C: 5%; D: 3%; E: -5%; F: 45µM*
compound: COc1ccc(NC(=O)c2c(C)oc3ccc(O)c(CN4CCC(C)CC4)c23)cc1Cl
  A: nt; B: ?; C: nt; D: nt; E: nt; F: -36%[59 µM]
compound: Cc1c(Cl)c(C(=O)N2CCCCCC2)nn1C
  A: nt; B: -1%; C: nt; D: nt; E: 5%; F: nt
compound: CCN(CC)c1ccc(S(=O)(=O)N2CCOCC2)cc1NC(=O)CSc1n[nH]c(N)n1
  A: nt; B: -1%; C: 2%; D: nt; E: 18%; F: 28%[59 µM]
compound: COc1cc2c(C(=O)N3CCN(C4CCCCC4)CC3)cn(CC(C)C)c(=O)c2cc1OC
  A: 22µM*; B: -3%; C: -13%; D: 2%; E: 6%; F: ?
compound: CCCN1CCN(C(=O)c2cn(CC(C)C)c(=O)c3cc(OC)c(OC)cc23)CC1
  A: ?; B: -4%; C: ?; D: 1%; E: 15%; F: 23%[12.7 µM]
compound: COc1cccc(S(=O)(=O)NCc2ccc(C(=O)N3CCN(Cc4ccccc4)CC3)cc2)c1
  A: nt; B: 14%; C: nt; D: nt; E: 17%; F: nt
compound: Cc1ccc(S(=O)(=O)NCc2ccc(C(=O)N3CCN(Cc4ccccc4)CC3)cc2)cc1
  A: 11µM*; B: 25%; C: 3%; D: ?; E: 2%; F: -1%
compound: O=C(NC(c1ccccc1)c1ccccc1)c1cccc(S(=O)(=O)NCc2ccccc2)c1
  A: 4.5µM*; B: 20%; C: -2%; D: ?; E: 7%; F: -4%[59 µM]
compound: CCN1CCN(C(=O)c2ccc(CNS(=O)(=O)c3cccc(OC)c3)cc2)CC1
  A: nt; B: 0%; C: nt; D: nt; E: 9%; F: 45µM*
compound: O=C(c1cccc(S(=O)(=O)NCc2ccccc2)c1)N1CCN(Cc2ccccc2)CC1
  A: 18µM*; B: 6%; C: -3%; D: ?; E: 18%; F: 6%[59 µM]
compound: COc1ccc(S(=O)(=O)NCc2ccc(C(=O)N3CCN(Cc4ccccc4)CC3)cc2)cc1
  A: nt; B: 14%; C: nt; D: nt; E: 11%; F: nt
compound: COc1ccc(CCNC(=O)Cn2ccc3c(OC)cccc3c2=O)cc1OC
  A: nt; B: 2%; C: -11%; D: nt; E: 11%; F: 15%
compound: O=C(CNc1cc(S(=O)(=O)N2CCOCC2)ccc1NCC1CCCO1)Nc1cccc(F)c1 (stereo not drawn)
  A: nt; B: -1%; C: nt; D: nt; E: -6%; F: nt
compound: CN(C(=O)COC(=O)c1ccc2c(c1)NC(=O)CS2)C1CCS(=O)(=O)C1 (stereo not drawn)
  A: 5%; B: 0%; C: 2%; D: 3%; E: -9%; F: 50µM*
compound: CC(C)CN(C(=O)COC(=O)c1ccc2c(c1)NC(=O)CS2)C1CCS(=O)(=O)C1 (stereo not drawn)
  A: 40µM*; B: -5%; C: 0%; D: 14%; E: 50µM*; F: ?
compound: O=C(NCCc1ccc(Cl)cc1)C1CCN(Cc2cc3ccccc3n2Cc2ccccc2)CC1
  A: nt; B: ?; C: nt; D: -20%[46 µM]; E: nt; F: 10%[59 µM]
compound: NC(=O)c1cccc(N)c1
  A: ?; B: nt; C: ?; D: ?; E: -7%; F: 13%[59 µM]
compound: CC(C)(C)c1nnc(NC(=O)c2ccc3c(c2)OCO3)s1
  A: nt; B: -69%; C: nt; D: nt; E: 22µM*; F: 3.5µM*
compound: C=CCNc1nc(N)c(C(=O)c2ccc3c(c2)OCO3)s1
  A: -1%; B: -31%; C: -1%; D: 1%; E: 10%; F: 50µM*
compound: CC(C)c1nnc(NC(=O)c2ccc3c(c2)OCO3)s1
  A: 1%; B: -12%; C: -5%; D: 9%[46 µM]; E: 5%; F: -44%
compound: CC(C)C[C@H](NC(=O)CNC(=O)[C@H](CCC(N)=O)NC(=O)[C@H](CC(C)C)NC(=O)[C@H](CC(C)C)NC(=O)[C@H](CCCNC(=N)N)NC(=O)[C@H](CCC(N)=O)NC(=O)[C@H](CC(C)C)NC(=O)[C@H](CCCNC(=N)N)NC(=O)[C@H](C)NC(=O)CNC(=O)[C@H](CCC(=O)O)NC(=O)[C@H](CCCNC(=N)N)NC(=O)[C@H](CC(C)C)NC(=O)[C@H](CCCNC(=N)N)NC(=O)[C@H](CO)NC(=O)[C@H](CC(C)C)NC(=O)[C@H](CCC(=O)O)NC(=O)[C@H](CO)NC(=O)[C@@H](NC(=O)[C@H](Cc1ccccc1)NC(=O)[C@@H](NC(=O)CNC(=O)[C@H](CC(=O)O)NC(=O)[C@H](CO)NC(=O)[C@@H](N)Cc1cnc[nH]1)[C@@H](C)O)[C@@H](C)O)C(=O)N[C@H](C(N)=O)C(C)C
  A: nt; B: nt; C: nt; D: nt; E: 1%; F: nt
compound: CN1CCN(c2ccnc(-c3ccoc3)n2)CC1
  A: ?; B: nt; C: nt; D: ?; E: 79µM*; F: -19%[0.501 µM]
compound: O=C(NC[C@H](O)c1ccccc1)c1ccccc1
  A: -1%; B: nt; C: 17%; D: nt; E: 14%; F: nt
compound: CCNc1ccc(C(=O)OCC(=O)N(Cc2ccccc2)C(C)(C)C)cc1[N+](=O)[O-]
  A: 3%; B: -6%; C: -4%; D: -7%; E: 2%; F: 89µM*
compound: CC(C)(C)N(Cc1ccccc1)C(=O)COC(=O)CSc1ccc([N+](=O)[O-])cc1
  A: nt; B: nt; C: nt; D: nt; E: nt; F: 40µM*
compound: COc1cc(NC(=O)c2cc3c(s2)-c2ccccc2OC3)cc(OC)c1OC
  A: nt; B: ?; C: nt; D: nt; E: nt; F: -34%[59 µM]
compound: CC(C)(C)OC(=O)N1CCC(c2c(C(=O)NC3CCCCC3)cnn2-c2cccc(Cl)c2)CC1
  A: nt; B: 11%; C: nt; D: 4%[46 µM]; E: nt; F: -11%[59 µM]

One compound at a time, from the list above. Order of values: ALDH1A1 inh | miR-21 reporter | JMJD2E inh | LMNA splice mod | Sfp PPTase inh | G9a inh
`CCCN1CCN(C(=O)c2cn(CC(C)C)c(=O)c3cc(OC)c(OC)cc23)CC1` as listed: ? | -4% | ? | 1% | 15% | 23%[12.7 µM]
`CS(=O)(=O)c1ccc(Sc2nc3ccccc3s2)c([N+](=O)[O-])c1` as listed: 6% | ? | 6% | ? | -5% | 0%[59 µM]

High-throughput results from PubChem BioAssay.
